For 1 substance, Kd results are on record in patent US20230295226A1.

The target of assay [1] is delta opioid receptor (DOR). Put plainly: protein binding radioassay.
The target in assay [2] is mu opioid receptor (MOR). Put plainly: protein binding radioassay.

Turning to “D-Ala-D-Leu enkephalin (DADLE) (peptide)”, the results for the Kd in assay [1] and in assay [2] were 8 nM and 9 nM, respectively.

By Kd is commonly meant the constant that tells how readily two partners part at equilibrium. A higher Kd goes with lower affinity.
